Experimental data taken from ChEMBL document CHEMBL2029213, “Multiple determinants for selective inhibition of apicomplexan calcium-dependent protein kinase CDPK1” (J Med Chem, 2012).

Protein sequences, listed by entry. Tags and fused reporters are not part of them.
UniProt P00519, whole entry: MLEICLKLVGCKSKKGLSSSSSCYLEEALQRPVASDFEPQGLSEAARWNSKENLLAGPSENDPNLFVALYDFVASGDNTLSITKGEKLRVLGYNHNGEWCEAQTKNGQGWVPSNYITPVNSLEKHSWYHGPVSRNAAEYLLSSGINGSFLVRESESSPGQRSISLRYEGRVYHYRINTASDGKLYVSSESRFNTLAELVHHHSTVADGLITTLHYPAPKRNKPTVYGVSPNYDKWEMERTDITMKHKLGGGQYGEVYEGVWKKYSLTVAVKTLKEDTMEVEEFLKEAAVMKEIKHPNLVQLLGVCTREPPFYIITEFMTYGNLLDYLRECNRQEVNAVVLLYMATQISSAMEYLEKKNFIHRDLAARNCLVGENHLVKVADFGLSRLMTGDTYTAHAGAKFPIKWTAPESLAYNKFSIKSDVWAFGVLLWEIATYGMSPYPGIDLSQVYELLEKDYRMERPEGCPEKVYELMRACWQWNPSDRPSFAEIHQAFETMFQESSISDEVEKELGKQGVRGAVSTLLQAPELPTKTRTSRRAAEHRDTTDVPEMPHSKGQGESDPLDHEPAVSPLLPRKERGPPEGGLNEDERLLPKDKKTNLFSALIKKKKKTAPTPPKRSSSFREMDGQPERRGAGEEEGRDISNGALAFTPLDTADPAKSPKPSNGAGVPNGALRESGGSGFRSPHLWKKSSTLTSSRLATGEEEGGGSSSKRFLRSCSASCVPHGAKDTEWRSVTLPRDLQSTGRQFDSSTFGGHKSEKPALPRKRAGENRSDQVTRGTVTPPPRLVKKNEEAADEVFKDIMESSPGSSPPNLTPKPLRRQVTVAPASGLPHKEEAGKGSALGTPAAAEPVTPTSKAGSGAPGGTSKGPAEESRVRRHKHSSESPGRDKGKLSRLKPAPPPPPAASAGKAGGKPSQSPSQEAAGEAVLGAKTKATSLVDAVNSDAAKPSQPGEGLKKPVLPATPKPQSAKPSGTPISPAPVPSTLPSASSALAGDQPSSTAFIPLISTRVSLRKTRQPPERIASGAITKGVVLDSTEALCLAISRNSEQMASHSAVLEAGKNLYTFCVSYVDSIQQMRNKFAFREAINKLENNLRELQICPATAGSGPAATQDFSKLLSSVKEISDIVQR

Target: Tyrosine-protein kinase ABL1 (Homo sapiens, UniProt P00519)

Ki: 0.75 µM
Structure (SMILES): COc1ccc2cc(-c3nn(C(C)C)c4ncnc(N)c34)ccc2c1
